Molecular target: hMAO-A (Homo sapiens, UniProt P21397)
Format: biochemical

By UniProt entry, the sequences of proteins in these tests, tags left out.
UniProt P21397, whole entry: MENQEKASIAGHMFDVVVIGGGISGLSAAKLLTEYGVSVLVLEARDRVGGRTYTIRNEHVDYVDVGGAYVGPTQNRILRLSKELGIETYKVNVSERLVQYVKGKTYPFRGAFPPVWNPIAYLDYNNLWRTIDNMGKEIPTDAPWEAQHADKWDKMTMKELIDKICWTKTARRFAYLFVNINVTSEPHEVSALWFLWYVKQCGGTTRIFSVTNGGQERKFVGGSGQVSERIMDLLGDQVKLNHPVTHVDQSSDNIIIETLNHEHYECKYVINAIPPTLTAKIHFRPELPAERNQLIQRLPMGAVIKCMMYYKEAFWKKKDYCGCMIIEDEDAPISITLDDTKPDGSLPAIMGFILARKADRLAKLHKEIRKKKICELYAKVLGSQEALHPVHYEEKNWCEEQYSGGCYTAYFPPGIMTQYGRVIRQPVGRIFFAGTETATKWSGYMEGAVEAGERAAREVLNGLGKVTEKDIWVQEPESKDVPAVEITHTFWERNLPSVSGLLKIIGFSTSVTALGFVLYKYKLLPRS

C#CCN(C)CCCOc1ccc(Cl)cc1Cl [Clorgyline, reference compound]
residual hMAO-A activity after dialysis: 14.9%
residual hMAO-A activity before dialysis: 19.7%
reversibility of hMAO-A inhibition: no recovery at all
